Measured values taken from patent US6908912B2, “Pyrithione biocides enhanced by zinc metal ions and organic amines” (priority 1999, dated 2005).

Assay: Solubility and stability of concentrated mixtures of sodium pyrithione, ZnCl2 and organic amines (Example 55)
Settings: mixture of NaPT 10.00, ZnCl2 1.74, organic amine(s) 60.50, water 27.76 weight %; room temperature

1-amino-2-propanol [Mixture 1A2P]
Appearance at 24 Hrs: S | Appearance at 72 Hrs: S

NCCO [MEA, monoethanolamine]
Appearance at 24 Hrs: S | Appearance at 72 Hrs: S
